Reference: PMC13347698 (Analytical Chemistry, 2026)

Legend:
[1] = target: wild-type 3CL^pro (Severe acute respiratory syndrome coronavirus 2, UniProt P0DTD1); type: binding, SARS-CoV-2
[2] = target: T1, native SARS-CoV-2 3CL^pro (Severe acute respiratory syndrome coronavirus 2, UniProt P0DTD1)
[3] = target: T1, native SARS-CoV-2 3CL^pro; remark: listed apart in the source

**Q.** With `O=C(Nc1ccc(N(Cc2ccsc2)C(=O)Cn2nnc3ccccc32)cc1)C1CC1` [ML300] as the compound, how does the “n (binding stoichiometry per 3CL^pro monomer)” value [1] read?
**A.** 1.1 ± 0.1

**Q.** What about the “binding kinetics (fast or slow-binding)” value [2] of the same compound?
**A.** fast

**Q.** And the “covalent or noncovalent inhibition” value [2]?
**A.** noncovalent

**Q.** What about the “inhibition at 0.80 μM inhibitor” value [2] of the same compound?
**A.** no inhibition was detectable

**Q.** What about the “tight or nontight binding” value [2] of the same compound?
**A.** nontight

**Q.** What about the inhibition mode [3] of the same compound?
**A.** predominantly competitive

**Q.** What about the α parameter [3] of the same compound?
**A.** 17 ± 3
